Most compounds without a hit are left out; they make up all but 1.6% or so of the library.
PglD DTNB – blocks C. jejuni PglD acetyltransferase activity. purified PglD enzyme, DTNB colorimetric CoA detection. inhibition, % at 12.5 µM. actives 0.098% (n = 360,000); in the data active = inhibition above about 16%, passing the limit was not always enough
CAL PDZ FP-1 – blocks peptide binding to human CAL PDZ domain; purified CAL PDZ, TMR-peptide fluorescence polarization, 1 h; inhibition, % at 20 µM; actives 0.02% (n = 330,000); Q9HD26; AID 504414;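 active = highest replicate inhibition of at least 40%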;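 note: plate controls were DMSO neutral control wells for no effect and unlabeled competitor peptide control wells for full effect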
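Material: tagged CAL PDZ domain; buffer or medium: 25 mM sodium phosphate pH 7.4, 150 mM NaCl, TCEP, IgG, Thesit; compound dosing: single point, 20 µM; schedule: 1 h incubation at room temperature before polarization reading; measured by: FP readout, S and P plane fluorescence; read-out basis: percent inhibition from loss of millipolarization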
Vif inh – HIV Vif inhibition. HEK293T cells, Vif self-association by quenched fluorescence, imaging, 24 h. inhibition, % at 7.49 µM. actives 0.35% (n = 340,000). AID 602346; in the data active = inhibition above about 50%, passing the limit was not always enough
ARNT-TACC3 inh – ARNT/TACC3 interaction disruption. Q9Y6A5. AlphaScreen His-ARNT PAS-B/GST-TACC3 binding, luminescence; TACC3 fragment carries E629A point mutation. inhibition, % at 9.99 µM. actives 0.66% (n = 390,000). AID 623870;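 active = mean inhibition of replicates at least 50% and at least half of replicates each reaching 50%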;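 note: 0% = complete ARNT plus TACC3 wells and 100% = ARNT alone without TACC3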
CAL PDZ FP-2 – inhibitors of human CAL PDZ peptide binding. inhibition, % at 24.9 µM. purified CAL PDZ, TMR-peptide fluorescence polarization, 1 h. actives 0.92% (n = 300,000);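 active = mean inhibition of at least 30% with at least half of replicates also reaching 30%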;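 note: 0% = DMSO neutral control and 100% = excess unlabeled competitor peptide PRC23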
UUG fidelity – alters start codon recognition fidelity in yeast. S. cerevisiae UUG-firefly luciferase reporter, luminescence/redox ratio. activity score, % at 18.7 µM. 0.13% of 350,000 active. AID 602363;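 active = replicate mean at a twofold rise or more, about +100% in these data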;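 also: firefly luciferase made from a UUG start codon reports start codon fidelity; reporter light over untreated wells divided by growth signal over untreated wells; some hits fall short of that in this replicate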
Active calls of the source: *; . = not tested or not shown.

SMILES | PglD DTNB | CAL PDZ FP-1 | Vif inh | ARNT-TACC3 inh | CAL PDZ FP-2 | UUG fidelity
C[C@H]1CN([C@@H](C)CO)C(=O)c2cc(C#Cc3ccncc3)cnc2O[C@@H]1CN(C)CC1CCOCC1 | 3.0 | . | . | -1.3 | . | -1.9
CCOC(=O)C1CCCN(CCC(=O)Nc2cc(OC)ccc2OC)C1 (stereo not drawn) | 0.8 | -0.2 | -3.3 | -1.3 | 2.3 | -9.3
CCOC(=O)N1CCC(=C(C#N)C(=O)Nc2cc(OC)ccc2OC)CC1 | -2.2 | -0.1 | 2.2 | 8.0 | 30.8* | -17.8
Nc1c(Cl)ncnc1N/N=C/c1ccnc2ccccc12 | -0.6 | 1.0 | -3.3 | 0.8 | -3.5 | -9.8
Nc1c(Cl)ncnc1N/N=C/c1ccc2ccccc2n1 | . | -1.3 | 1.3 | 64.3* | 2.2 | .
Cc1cc(C(=O)NNC(=O)c2ccc(C(F)(F)F)cc2)no1 | . | -0.1 | -0.2 | -3.9 | 59.6* | .
Cc1cc(C(=O)NNC(=O)c2cccc(C(F)(F)F)c2)no1 | . | -0.6 | -3.7 | -4.5 | 45.0* | .
COc1ccc(NC(=O)N(C)C[C@@H]2OCCCC[C@H](C)Oc3ccc(NS(=O)(=O)c4ccccc4)cc3C(=O)N([C@@H](C)CO)C[C@@H]2C)cc1 | 0.7 | . | . | 14.1 | . | 2.9
O=C(NC1CCCC1)C(c1ccccn1)N(C(=O)c1csnn1)c1ccccc1 (stereo not drawn) | -0.7 | 0.5 | 15.2 | -4.8 | -0.5 | -15.0
O=C(NC1CCCC1)C(c1ccccn1)N(Cc1ccc(F)cc1)C(=O)c1csnn1 (stereo not drawn) | -2.5 | -0.7 | 18.9 | 1.2 | 51.4* | -11.2
Cc1ccc(N(C(=O)c2csnn2)C(C(=O)NC2CCCC2)c2ccccn2)cc1 (stereo not drawn) | 2.2 | -2.1 | 56.4* | -5.9 | -1.4 | -13.6
O=C(NC1CCCC1)C(c1ccccc1)N(Cc1ccc(F)cc1)C(=O)c1csnn1 (stereo not drawn) | -2.9 | -2.0 | 11.9 | 12.4 | -6.3 | 6.1
C[C@@H]1CN([C@H](C)CO)C(=O)c2cccc(NS(=O)(=O)c3ccc(F)cc3)c2O[C@@H]1CN(C)Cc1ccc(-c2ccccc2)cc1 | 2.7 | . | . | 2.8 | . | 14.3
CC(Sc1nncs1)C(=O)Nc1ccc(S(=O)(=O)Nc2ncccn2)cc1 (stereo not drawn) | -3.5 | -1.0 | -5.3 | 47.7* | -3.9 | -0.5
COc1cc(OC)cc(C(=O)NCC2CCCN(C(=O)c3oc(C)cc3C)C2)c1 (stereo not drawn) | 2.6 | -0.5 | -8.8 | -11.8 | 46.2* | 13.2

Sorted by the number under CAL PDZ FP-1 (falling): 3 from the list above.
mol | PglD DTNB | CAL PDZ FP-1 | Vif inh | ARNT-TACC3 inh | CAL PDZ FP-2 | UUG fidelity
CCOC(=O)C1CCCN(CCC(=O)Nc2cc(OC)ccc2OC)C1 (stereo not drawn) | 0.8 | -0.2 | -3.3 | -1.3 | 2.3 | -9.3
COc1cc(OC)cc(C(=O)NCC2CCCN(C(=O)c3oc(C)cc3C)C2)c1 (stereo not drawn) | 2.6 | -0.5 | -8.8 | -11.8 | 46.2* | 13.2
O=C(NC1CCCC1)C(c1ccccc1)N(Cc1ccc(F)cc1)C(=O)c1csnn1 (stereo not drawn) | -2.9 | -2.0 | 11.9 | 12.4 | -6.3 | 6.1

Other structures
SMILES | PglD DTNB | CAL PDZ FP-1 | Vif inh | ARNT-TACC3 inh | CAL PDZ FP-2 | UUG fidelity
Cc1noc(C)c1S(=O)(=O)Nc1cccc2c1O[C@H](CN(C)C)[C@H](C)CN([C@H](C)CO)C2=O | -0.4 | . | . | -1.3 | . | 4.9
Cc1nonc1C(=O)N/N=C/c1ccc(O)cc1O | 0.2 | -2.3 | 29.9 | 66.0* | -4.0 | -24.8
COc1ccc(/C=N/NC(=O)c2nonc2C)cc1 | . | 0.4 | 4.7 | -3.3 | -2.9 | .
O=C(N/N=C/c1ccc(O)cc1O)c1ccncc1 | -0.1 | -0.3 | -15.7 | 73.7* | 0.6 | -14.0
Cc1nc2ccc(C(=O)N/N=C/c3cc([N+](=O)[O-])ccc3O)cc2[nH]1 | 3.1 | -3.6 | -1.1 | 13.7 | -2.7 | -24.6
O=C(N/N=C/c1ccc(Cl)cc1Cl)c1ccncc1 | -1.6 | -2.6 | -2.2 | 10.3 | -6.4 | -18.5
Cc1nc2ccc(C(=O)N/N=C/c3ccccc3O)cc2[nH]1 | 1.4 | -3.0 | 1.5 | 93.3* | -4.5 | -5.4
C[C@H]1CN([C@@H](C)CO)C(=O)Cc2cc(NC(=O)Cn3cnnn3)ccc2O[C@@H]1CN(C)Cc1ccc(C(=O)O)cc1 | -3.4 | . | . | -5.6 | . | 2.6
Cc1ccc2c(c1)N(CC(=O)Nc1ccccc1F)C(=O)CO2 | -7.5 | -1.2 | -4.1 | -6.7 | 56.4* | -5.9
O=C(CN1C(=O)COc2ccccc21)Nc1ccccc1F | 0.9 | -0.8 | -2.6 | -2.2 | -6.9 | -6.7
COc1ccccc1C(=O)N/N=C(\C)CC(=O)Nc1ccc(Cl)cn1 | . | -0.7 | 20.9 | 3.8 | 65.2* | .
COc1ccccc1C(=O)N/N=C(\C)CC(=O)Nc1ccccn1 | . | -1.0 | -3.7 | 12.8 | . | .
COc1ccc(-c2cc(C(=O)OCC(=O)NC3CC3)c3ccccc3n2)cc1 | -7.0 | -2.7 | -7.9 | -1.2 | -3.2 | -4.3
COc1ccc2cc(-c3cc(C(=O)OCC(=O)NC4CCS(=O)(=O)C4)c4ccccc4n3)ccc2c1 (stereo not drawn) | . | -2.3 | 51.8* | 1.8 | -2.1 | .
O=C(COC(=O)c1cc(-c2cccs2)nc2ccccc12)NC1CCS(=O)(=O)C1 (stereo not drawn) | . | 0.2 | -13.9 | 48.7* | -8.0 | .

Compound profiles (already shown):
COc1ccc(/C=N/NC(=O)c2nonc2C)cc1 in the list: PglD DTNB: .; CAL PDZ FP-1: 0.4; Vif inh: 4.7; ARNT-TACC3 inh: -3.3; CAL PDZ FP-2: -2.9; UUG fidelity: .
COc1ccc2cc(-c3cc(C(=O)OCC(=O)NC4CCS(=O)(=O)C4)c4ccccc4n3)ccc2c1 (stereo not drawn) in the list: PglD DTNB: .; CAL PDZ FP-1: -2.3; Vif inh: 51.8*; ARNT-TACC3 inh: 1.8; CAL PDZ FP-2: -2.1; UUG fidelity: .

Additional results follow:
SMILES | PglD DTNB | CAL PDZ FP-1 | Vif inh | ARNT-TACC3 inh | CAL PDZ FP-2 | UUG fidelity
C[C@@H](NC(=O)[C@@H]1[C@@H](CO)[C@@H]2Cn3c(ccc(-c4cccnc4)c3=O)[C@@H]2N1C)c1ccccc1 | 2.4 | . | . | -3.2 | . | .
CCn1cc(C(=O)NC2CCCCCC2)c2cc(OC)c(OC)cc2c1=O | . | -0.8 | -1.0 | 2.6 | 47.7* | .
COc1cc(SC)ccc1C(=O)OCC(=O)NC1CCCCC1 | -0.3 | -1.1 | -14.7 | -9.0 | -6.2 | -11.0
COc1ccc(C(=O)Nc2ccncc2)c(OC)c1 | . | -0.1 | 5.2 | -6.1 | -6.2 | .
COc1cc(SC)ccc1C(=O)NC1CCCCC1 | 1.3 | -1.2 | 12.9 | -1.7 | 46.6* | -10.2
COc1cc(SC)ccc1C(=O)Nc1ccncc1 | . | -1.6 | -3.5 | -6.1 | 31.2* | .
COC(=O)C[C@@H]1CC[C@@H](NS(=O)(=O)c2ccccc2F)[C@H](CO)O1 | 1.9 | . | . | 1.8 | . | .
C[C@@H]1CN([C@H](C)CO)C(=O)c2cc(-c3ccccc3)cnc2O[C@@H]1CN(C)Cc1ccccn1 | 2.9 | . | . | . | . | 19.0
O=C(CCCOc1ccc(Br)cc1)NNC(=O)c1ccncc1 | . | -2.5 | 67.4* | 2.0 | -0.2 | .
O=C(O)c1cc(O)c2c(c1)[C@H]([C@H]1c3cc(C(=O)O)cc(O)c3C(=O)c3c(O[C@@H]4O[C@H](CO)[C@@H](O)[C@H](O)[C@H]4O)cccc31)c1cccc(OC3O[C@H](CO)[C@@H](O)[C@H](O)[C@H]3O)c1C2=O (stereo partly drawn) | 0.9 | 22.8 | -0.7 | 7.8 | 1.1 | -15.5
O=C(O)c1cc(O)c2c(c1)[C@@H]([C@H]1c3cc(C(=O)O)cc(O)c3C(=O)c3c(O[C@@H]4O[C@H](CO)[C@@H](O)[C@H](O)[C@H]4O)cccc31)c1cccc(OC3O[C@H](CO)[C@@H](O)[C@H](O)[C@H]3O)c1C2=O (stereo partly drawn) | 4.6 | 12.6 | 3.9 | 5.1 | 37.4* | -13.4
N/C(=N\NC(=O)Nc1ccccc1)c1ccccn1 | -0.8 | . | 0.2 | . | . | 7.2
N/C(=N\NS(=O)(=O)c1ccccc1)c1ccccn1 | 0.6 | -0.5 | 0.0 | 66.5* | 6.3 | -26.2
N/C(=N\NS(=O)(=O)c1ccc(Cl)cc1)c1ccccn1 | . | -0.1 | 4.8 | 43.4* | -3.4 | .
CCCc1cn(CC[C@H]2CC[C@H](NC(=O)C3CC3)[C@@H](CO)O2)nn1 | 1.1 | . | . | 4.1 | . | 17.1

Screens deposited in PubChem BioAssay by Broad Institute.
